The assay addresses T1, Dihydrofolate reductase (Pneumocystis carinii, UniProt P16184).
T1 sequence (P16184 whole entry): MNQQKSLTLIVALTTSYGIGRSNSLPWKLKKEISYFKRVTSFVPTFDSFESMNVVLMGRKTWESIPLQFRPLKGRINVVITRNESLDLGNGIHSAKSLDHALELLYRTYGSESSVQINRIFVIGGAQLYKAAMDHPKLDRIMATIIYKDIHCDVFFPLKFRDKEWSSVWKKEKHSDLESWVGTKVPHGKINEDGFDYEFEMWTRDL

pIC50: −log10 of the molar value.

Usually pIC50 stands for the IC50 on a negative log10 scale, so that one unit is a factor of ten. Higher therefore signals a low IC50. `COc1ccc(OC)c(NCc2c[nH]c3nc(N)nc(N)c23)c1` had a pIC50 of 4.34.

Source of the values: ChEMBL document CHEMBL1128397, “Novel 2,4-diamino-5-substituted-pyrrolo[2,3-d]pyrimidines as classical and nonclassical antifolate inhibitors of dihydrofolate reductases” (J Med Chem, 1995).
